Measured values: patent publication US20250136606A1, “MODULATORS OF TRPML, THEIR COMPOSITIONS AND METHODS OF USE” (Caraway Therapeutics, Inc., priority 2021, published 2025)

Sequences of proteins named here, by UniProt entry; tags and fusion partners are left off.
UniProt Q9GZU1, whole entry L15A/L16A/L577A/L578A: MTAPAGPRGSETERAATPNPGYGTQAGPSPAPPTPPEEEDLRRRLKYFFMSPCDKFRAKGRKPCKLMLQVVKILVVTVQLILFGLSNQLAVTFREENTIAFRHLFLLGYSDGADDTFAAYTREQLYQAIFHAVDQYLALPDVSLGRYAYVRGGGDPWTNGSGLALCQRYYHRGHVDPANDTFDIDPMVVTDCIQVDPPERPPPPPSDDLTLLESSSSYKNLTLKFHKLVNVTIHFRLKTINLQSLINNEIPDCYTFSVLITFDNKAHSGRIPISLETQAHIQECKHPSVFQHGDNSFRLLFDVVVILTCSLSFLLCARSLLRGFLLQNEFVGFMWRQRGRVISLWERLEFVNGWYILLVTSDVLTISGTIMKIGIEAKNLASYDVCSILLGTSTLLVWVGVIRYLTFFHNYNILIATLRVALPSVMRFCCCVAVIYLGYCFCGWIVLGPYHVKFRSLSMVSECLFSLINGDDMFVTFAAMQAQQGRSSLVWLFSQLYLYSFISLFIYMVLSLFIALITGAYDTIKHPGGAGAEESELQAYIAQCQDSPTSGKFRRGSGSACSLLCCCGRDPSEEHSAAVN
UniProt Q8IZK6, whole entry: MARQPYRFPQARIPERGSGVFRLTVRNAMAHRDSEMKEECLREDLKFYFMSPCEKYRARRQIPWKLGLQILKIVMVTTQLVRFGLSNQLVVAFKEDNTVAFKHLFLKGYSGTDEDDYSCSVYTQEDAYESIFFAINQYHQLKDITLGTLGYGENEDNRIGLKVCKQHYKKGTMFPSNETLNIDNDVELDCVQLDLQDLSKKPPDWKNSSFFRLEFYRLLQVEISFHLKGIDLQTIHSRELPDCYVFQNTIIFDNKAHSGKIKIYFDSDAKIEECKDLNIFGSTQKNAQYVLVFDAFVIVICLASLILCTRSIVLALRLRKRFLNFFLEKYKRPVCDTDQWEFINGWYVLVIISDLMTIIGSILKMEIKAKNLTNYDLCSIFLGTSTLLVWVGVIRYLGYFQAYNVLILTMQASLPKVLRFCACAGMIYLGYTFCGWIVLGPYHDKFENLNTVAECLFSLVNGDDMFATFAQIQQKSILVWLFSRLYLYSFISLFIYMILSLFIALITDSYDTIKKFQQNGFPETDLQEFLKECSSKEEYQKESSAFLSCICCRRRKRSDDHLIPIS
UniProt Q8TDD5, whole entry: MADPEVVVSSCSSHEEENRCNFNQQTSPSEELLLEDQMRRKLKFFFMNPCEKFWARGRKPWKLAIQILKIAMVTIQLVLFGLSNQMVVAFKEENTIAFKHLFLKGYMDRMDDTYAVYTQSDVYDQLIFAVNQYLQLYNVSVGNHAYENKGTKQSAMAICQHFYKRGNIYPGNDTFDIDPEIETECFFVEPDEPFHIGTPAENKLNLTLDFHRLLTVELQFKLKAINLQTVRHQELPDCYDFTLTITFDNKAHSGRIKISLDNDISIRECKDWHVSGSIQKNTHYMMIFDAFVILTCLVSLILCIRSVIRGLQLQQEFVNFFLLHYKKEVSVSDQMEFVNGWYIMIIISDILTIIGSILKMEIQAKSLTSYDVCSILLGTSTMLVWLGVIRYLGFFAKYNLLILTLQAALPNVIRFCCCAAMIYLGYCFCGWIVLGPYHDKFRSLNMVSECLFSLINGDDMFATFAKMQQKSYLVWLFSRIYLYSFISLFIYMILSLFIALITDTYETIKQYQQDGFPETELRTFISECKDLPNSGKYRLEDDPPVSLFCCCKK

Tests used:
TRPML1 = TRPML1 (Homo sapiens, UniProt Q9GZU1); test: Fluorescent TRPML1 assay (Fluo4-AM calcium fluorescence in doxycycline-induced HEK-293 Trex cells); conditions: read-out: Human TRPML1 EC50
Method: (§1) HEK-293 Trex cells were stably transfected with a construct consisting of the human coding sequence for TRPML1 cloned into the […] plasmid pCDNA5 T/O. Mutations were introduced into the TRPML1 sequence to facilitate expression on the cell surface (Silvia Vergarajauregui, Rosa Puertollano, Traffic. 2006 March; 7(3): 337-353). Briefly, the cells are cultured in 150 mm round tissue culture dishes containing 20 mL of media. The day before the assay the cells are rinsed with DPBS-Ca—Mg and then treated briefly with Trypsin-EDTA. The Trypsin-EDTA is diluted with growth media, and cells are counted. […]
(§2) 50 microliters of dye-loaded cells are dispensed into each well of the compound assay plate created above. The fluorescence in each well is then determined with an excitation wavelength of 480 nm and an emission wavelength of 540 nm using either a Molecular Devices SpectraMax multimode plate reader or a Hamamatsu FDSS/uCell plate imager.
The resulting fluorescence for each well is exported as an ascii file and loaded into our LIMS for analysis. The percent activity of each compound at each concentration is determined by comparison to the positive and negative control wells included in each plate.
(§3) EC50 values were calculated using a non-linear regression of Prism. […]

TRPML2 = TRPML2 (Homo sapiens, UniProt Q8IZK6); test: Fluorescent TRPML2 assay (performed as for TRPML1, substituting the TRPML2 subtype); conditions: read-out: Human TRPML2 EC50, fluorescent calcium assay
Method: as §1, §2
(§4) The resulting fluorescence for each well is exported as an ascii file and loaded into our LIMS for analysis. The percent activity of each compound at each concentration is determined by comparison to the positive and negative control wells included in each plate. […]
as §3

TRPML3 = TRPML3 (Homo sapiens, UniProt Q8TDD5); test: Fluorescent TRPML3 assay (performed as for TRPML1, substituting the TRPML3 subtype); conditions: read-out: Human TRPML3 EC50, fluorescent calcium assay
Method: as §1, §2, §4, §3

- EC50 (TRPML1): < 100 nM
- EC50 (TRPML2): 500 to 2000 nM
- EC50 (TRPML3): < 100 nM
SMILES: C=CCOC(=O)N(CCOC)c1cn(-c2cc(Cl)ccn2)c2ncnc(N3CCN(C(=O)OC(C)(C)C)C[C@@H]3C)c12
